Test results as given in article PMC10762035, “Molecular basis of human trace amine-associated receptor 1 activation” (Nature Communications, 2024).
Numbering of substitutions follows the chain as printed.

What was measured:
[1] = molecular target: T1, hTA1 I290Y (Homo sapiens, UniProt Q96RJ0, I290Y); assay: GloSensor cAMP accumulation assay, I290Y mutant; assay type: cell-based; conditions: hTA1 I290Y (N=3), log[Compound];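 note: normalized to the maximum response of β-PEA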
T1 construct: expressed in transfected cells; host or cells: HEK293T
T1 sequence (Q96RJ0 1-339 I290Y): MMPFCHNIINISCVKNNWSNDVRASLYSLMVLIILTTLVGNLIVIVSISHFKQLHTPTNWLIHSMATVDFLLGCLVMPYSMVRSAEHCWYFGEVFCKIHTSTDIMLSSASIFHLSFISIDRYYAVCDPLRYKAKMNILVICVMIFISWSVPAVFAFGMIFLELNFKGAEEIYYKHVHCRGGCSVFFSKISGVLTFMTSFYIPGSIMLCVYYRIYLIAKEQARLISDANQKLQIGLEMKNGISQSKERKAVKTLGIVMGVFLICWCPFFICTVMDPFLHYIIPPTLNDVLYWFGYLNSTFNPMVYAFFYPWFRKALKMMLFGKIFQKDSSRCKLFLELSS

[2] = molecular target: T2, hTA1 (Homo sapiens, UniProt Q96RJ0); assay: Screen of 89 aminergic compounds at 10 µM, cAMP accumulation in HEK293T cells; assay type: cell-based; design: expressed in transfected cells; host or cells: HEK293T;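 note: HEK293T cells co-transfected with hTA1 and GloSensor cAMP reporter, cAMP accumulation detected by luminescence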
T2 sequence (Q96RJ0 1-339): T1 sequence (Q96RJ0 1-339 I290Y) with Y290I

Structure (SMILES) | cAMP accumulation response, normalized (concentration-response source data, single replicate values) ([1]; M = -8.522) | cAMP accumulation response, normalized (concentration-response source data, single replicate values) ([1]; M = -10) | increase of signal over DMSO-treated controls (hTA1 activation) [2] [fold]
NCCc1ccc(O)cc1 [TYR, tyramine] | -1.842 | -1.842 | 
CCCN1CCC[C@@H]2Cc3n[nH]cc3C[C@H]21 [quinpirole] |  |  | ≥ 4
